Values quoted from earlier work in US5028692A, “Gastrin releasing peptide antagonist” (Merck & Co., Inc., priority 1989, dated 1991).

Protein sequences, listed by entry. Tags and fused reporters are not part of them. Lines headed by an entry give the natural chain unless they say otherwise; changes in a name come on top.
UniProt P30550: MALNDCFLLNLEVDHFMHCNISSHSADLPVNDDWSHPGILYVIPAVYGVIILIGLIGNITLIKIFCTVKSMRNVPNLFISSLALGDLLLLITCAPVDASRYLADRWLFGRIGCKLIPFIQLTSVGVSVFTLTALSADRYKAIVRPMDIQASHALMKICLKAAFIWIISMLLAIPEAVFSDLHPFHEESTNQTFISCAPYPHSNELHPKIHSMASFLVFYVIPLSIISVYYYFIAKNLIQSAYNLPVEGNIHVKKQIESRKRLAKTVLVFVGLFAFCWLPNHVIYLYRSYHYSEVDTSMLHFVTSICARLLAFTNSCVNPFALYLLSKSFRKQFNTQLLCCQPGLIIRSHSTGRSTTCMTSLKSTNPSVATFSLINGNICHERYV
UniProt P21729: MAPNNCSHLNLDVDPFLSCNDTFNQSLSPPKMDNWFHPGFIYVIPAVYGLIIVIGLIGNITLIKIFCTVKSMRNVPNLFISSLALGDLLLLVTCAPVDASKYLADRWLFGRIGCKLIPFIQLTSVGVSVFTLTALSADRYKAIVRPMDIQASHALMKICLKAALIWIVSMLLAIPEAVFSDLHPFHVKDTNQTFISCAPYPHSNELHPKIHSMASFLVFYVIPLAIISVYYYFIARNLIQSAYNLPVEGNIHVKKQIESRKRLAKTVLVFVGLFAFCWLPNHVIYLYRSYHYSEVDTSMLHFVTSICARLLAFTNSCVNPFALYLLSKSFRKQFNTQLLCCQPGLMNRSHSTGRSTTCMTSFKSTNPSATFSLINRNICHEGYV

Legend:
[1] = biological target: bombesin receptor (Homo sapiens, UniProt P30550)
[2] = biological target: T1, bombesin receptor (Mus musculus, UniProt P21729); conditions: Swiss 3T3 cells
T1 construct: host or cells: Swiss 3T3 cells (endogenous receptor)

**Q.** Which results are given for [Leu^14 -.PSI.-CH2 NH-Leu^13 ] bombesin?
**A.** improvement in binding affinity compared to previously reported bombesin receptor antagonists [1]: 100 fold; bombesin receptor antagonism [2]: specific bombesin receptor antagonist
